Test results taken from ChEMBL document CHEMBL1140609, “Carbonic anhydrase inhibitors. Inhibition of transmembrane isozymes XII (cancer-associated) and XIV with anions” (Bioorg Med Chem Lett, 2007).

The chains behind the UniProt entries cited, without tags or fusion partners. Residues count along the entry.
UniProt Q9ULX7, 16-337 limits assumed: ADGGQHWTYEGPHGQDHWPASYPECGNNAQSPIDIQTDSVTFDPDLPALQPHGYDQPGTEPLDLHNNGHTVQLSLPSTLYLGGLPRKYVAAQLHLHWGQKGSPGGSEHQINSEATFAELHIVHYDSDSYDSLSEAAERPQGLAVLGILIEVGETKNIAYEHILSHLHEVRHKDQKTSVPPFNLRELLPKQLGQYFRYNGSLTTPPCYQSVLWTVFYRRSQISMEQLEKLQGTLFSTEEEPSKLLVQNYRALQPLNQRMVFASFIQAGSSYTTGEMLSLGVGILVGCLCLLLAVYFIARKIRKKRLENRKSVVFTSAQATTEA

Assays:
[1] = target: Carbonic anhydrase 14 (Homo sapiens, UniProt Q9ULX7); assay: Inhibition of human recombinant full length CA14
[2] = target: Carbonic anhydrase 9 (Homo sapiens, UniProt Q16790); assay: Inhibition of human recombinant catalytic domain CA9

## O=[As](O)(O)c1ccccc1
[1]
  Ki: 84 µM
[2]
  Ki: 55 µM
